Test system: Sprague–Dawley rats
Conditions: 300 mg/kg ip

For CC(C(O)c1ccc(O)cc1)N1CCC(Cc2ccccc2)CC1 (stereo not shown) [ifenprodil], the deaths was “Three of the four animals in our study died”.

Reference: paper PMC3142473 (Journal of medicinal chemistry, 2008)
